Experimental data: patent US20260115313A1, “ANTIBODY-CONJUGATED LIPOSOME” (Highfield Biopharmaceuticals Corporation, priority 2021, published 2026)

Experiments:
[1] = test system: NCI-N87 gastric cancer xenograft; test: NCI-N87 gastric cancer xenograft dose-dependent efficacy; type: in vivo, Balb/C-Nude nude mice; conditions: 5 mg/kg once a week, 5 doses
Protocol: […] grade were purchased and allowed to acclimatize in the animal breeding room for about a week. After NCI-N87 cells grew to the logarithmic growth phase, they were digested with trypsin, centrifuged, and then collected. The cells were then washed with PBS buffer 2-3 times, then resuspended in PBS buffer and counted. The cell density was then adjusted to 2*10^8 cells/mL. The Matrigel matrix gel was removed from the refrigerator at -20° C. and melted on ice in advance, and the cell suspension was mixed with the Matrigel matrix gel according to a volume of 1:1. Based on the amount of 1*10^7 cells, a 1 mL syringe was used to aspirate the corresponding volume of cell suspension and subcutaneously inoculate it into the right axillary area of nude mice, with pressure applied to the needle puncture site for 30 s after inoculation to prevent the leakage of the cell solution. After inoculation, a significant subcutaneous papule was observed. The inoculated mice were observed regularly and tumor growth was monitored. […] After grouping, the control group was given empty liposomes via the caudal vein. […] The body weight and tumor growth curve of the mice were recorded every other day, and the mice were euthanized after the end of dosing. […]

[2] = test system: MCF-7 breast cancer xenograft; test: MCF-7 breast cancer (HER2-low) xenograft pharmacodynamics; type: in vivo, Balb/C-Nude nude mice; conditions: MCF-7 xenograft; 5 mg/kg once a week, 5 doses
Protocol: The MCF-7 breast cancer cell line with low cell-surface HER2 expression was selected to construct a Balb/C-Nude nude mouse xenograft model. […] Construction of NCI-N87 Breast Cancer Balb/C-Nude Nude Mouse Xenograft Model […] After grouping, the control group was given empty liposomes via the caudal vein. The nude mice in the Formulation A doxorubicin-loaded liposome group were given a 2 mg/kg dose of doxorubicin-loaded liposome with a drug-to-lipid ratio of 0.17 via the caudal vein according to body weight; the nude mice in the 10-[…] group were also similarly given 2, 5 and 10 mg/kg doses of HER2 Fab antibody-targeted Formulation C doxorubicin-loaded liposome via the caudal vein according to body weight; at the same time, the trastuzumab group was set as the control group and given 5 mg/kg once a week and a total of 5 doses were administered. The body weight and tumor growth curve of the mice were recorded every other day, and the mice were euthanized after the end of dosing. The efficacy evaluation method was the same as that in 10.2.

How did the tumor inhibition rate [1] turn out when trastuzumab was run?
Its tumor inhibition rate is 14.49%.

What about the tumor inhibition rate [2] of the same substance?
The tumor inhibition rate was 2.91%.
